Measured values taken from paper PMC3938192 (ACS chemical biology, 2013).

Biological target: T1, Pkd1-WT (Homo sapiens, UniProt Q15139)
T1 sequence (Q15139 1-912): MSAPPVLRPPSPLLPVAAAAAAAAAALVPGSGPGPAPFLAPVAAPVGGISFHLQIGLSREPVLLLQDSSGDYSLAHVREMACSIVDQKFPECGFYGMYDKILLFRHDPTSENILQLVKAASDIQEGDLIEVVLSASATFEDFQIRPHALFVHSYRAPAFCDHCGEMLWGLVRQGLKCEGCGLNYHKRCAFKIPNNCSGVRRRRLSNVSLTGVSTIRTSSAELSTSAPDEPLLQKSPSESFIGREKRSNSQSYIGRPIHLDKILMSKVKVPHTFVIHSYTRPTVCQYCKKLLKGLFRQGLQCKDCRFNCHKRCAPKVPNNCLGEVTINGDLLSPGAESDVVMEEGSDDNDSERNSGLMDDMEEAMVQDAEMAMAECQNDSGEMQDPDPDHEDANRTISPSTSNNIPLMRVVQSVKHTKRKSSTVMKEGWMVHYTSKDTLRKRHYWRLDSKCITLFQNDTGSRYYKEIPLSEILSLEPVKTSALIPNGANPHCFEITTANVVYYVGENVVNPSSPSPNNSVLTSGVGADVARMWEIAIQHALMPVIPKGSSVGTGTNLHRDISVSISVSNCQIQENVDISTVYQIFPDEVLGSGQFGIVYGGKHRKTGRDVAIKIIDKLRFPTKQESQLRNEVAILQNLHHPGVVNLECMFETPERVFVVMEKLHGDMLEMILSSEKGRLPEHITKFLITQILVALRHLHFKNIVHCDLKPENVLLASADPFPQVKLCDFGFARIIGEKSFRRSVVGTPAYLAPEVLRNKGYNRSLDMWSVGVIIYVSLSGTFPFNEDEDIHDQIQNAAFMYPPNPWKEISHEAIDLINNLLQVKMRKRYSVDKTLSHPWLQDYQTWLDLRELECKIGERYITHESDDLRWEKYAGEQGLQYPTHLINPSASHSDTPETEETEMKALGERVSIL
Assay type: biochemical
Settings: read-out: IC50 for Pkd1-WT in vitro

SMILES: CC(C)(C)n1nc(-c2cccc3ccccc23)c2c(N)ncnc21 [1NA-PP1]
- IC50: 150 nM
